Test system: tyrosine hydroxylase (TH)
Test: Tyrosine hydroxylase (TH) level in midbrain, immunohistochemistry, MPTP mouse
Assay type: in vivo
Details: L-DOPA 10 mg/kg qd; vs model group
Description: The core pathological change of Parkinson's disease is the loss of dopaminergic neurons. Tyrosine hydroxylase (TH), the rate-limiting enzyme in dopamine synthesis, is the landmark protein of the dopaminergic neurons. Therefore, the decrease in its level indicates the loss of the dopaminergic neurons. A key protein for the occurrence and development of Parkinson's disease is α-synuclein protein, and the abnormal modification (hyperphosphorylation) of this protein can inhibit microtubule polymerization, enhance oxidative stress, and thus accelerate the death of the dopaminergic neurons.
Male C57 mouse were screened for their motor function by a mouse rod-rotating test, and unqualified ones were excluded from the test. […] Compound I-5, the positive control drug levodopa (L-DOPA) and MPTP were prepared currently and ready to use. […]
Tissues from all the animals were collected on the second day after the end of the behavioral experiment. […] The level of tyrosine hydroxylase (TH), a marker protein of dopaminergic neurons, was detected by immumohistochemistry, and α-synuclein protein level and phosphorylation level of the protein were detected by Western blot.

## N[C@@H](Cc1ccc(O)c(O)c1)C(=O)O [L-DOPA, levodopa, reference compound]
  TH positive area of substantia nigra: no significant difference

— US20230285372A1, “Pharmaceutical use of (E)-3-arylheterocyclylprop-2-enoic acid derivatives” (MEDCURIUS INC., priority 2020, published 2023)
